According to paper PMC12921516, “Optimization of Indole- and Pyrazole-fused Glycyrrhetinic Acid Derivatives as Potent PTP1B Inhibitors: In Silico, In Vitro, In Vivo, and Metabolomic Studies” (ACS Bio & Med Chem Au, 2025):

Biological target: T1, hPTP1B1–400 (Homo sapiens, UniProt P18031)
T1 construct: h PTP1B 1–400 IC 50 (μM ± S.D); made in house
T1 sequence (P18031 1-400): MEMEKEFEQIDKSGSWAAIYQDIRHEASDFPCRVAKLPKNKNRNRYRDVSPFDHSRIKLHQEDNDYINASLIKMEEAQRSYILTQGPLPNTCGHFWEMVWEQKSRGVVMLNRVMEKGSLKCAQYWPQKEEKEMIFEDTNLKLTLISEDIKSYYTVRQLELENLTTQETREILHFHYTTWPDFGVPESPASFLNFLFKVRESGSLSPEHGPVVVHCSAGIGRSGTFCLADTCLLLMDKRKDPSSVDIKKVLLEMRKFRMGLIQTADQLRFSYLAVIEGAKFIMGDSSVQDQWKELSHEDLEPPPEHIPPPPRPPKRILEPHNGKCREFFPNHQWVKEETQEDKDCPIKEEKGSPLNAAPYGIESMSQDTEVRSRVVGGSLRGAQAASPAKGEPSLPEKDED
Assay: PTP1B inhibition, pNPP hydrolysis, long form
Type: biochemical
Details: pNPP substrate, 15 min 37 °C, pH 6.8; ± S.D
Description: The inhibitory activity of PTP1B was assessed using the long form of the PTP1B enzyme (hPTP1B1–400). This enzyme comprises a highly conserved N-terminal catalytic domain, known as the PTP domain (PTP1B1–300), in addition to an intrinsically disordered regulatory domain (PTP1B301–400).
The IC50 values obtained from these tests are detailed in Table .
Aliquots of 0–10 μL of the test compounds (triplicate) were taken and incubated for 15 min at 37 °C with 85 μL of Tris buffer solution (50 mM, pH 6.8) containing PTP1B enzyme and 5 μL of p-nitrophenyl phosphate substrate (pNPP, 10 mM). The absorbance of the hydrolysis product, p-nitrophenol (pNP), was measured at 405 nm using a 96-microplate absorbance reader (Accuris SmartReader 96). The inhibitory activity was determined according to eq . %enzyme=(A405b/A405c)×100 1 Where: % enzyme is the percentage of inhibition for PTP1B or TCPTP
The IC50 was calculated using regression analysis, eq : %inhibition=A100/1+(I/IC50)^s 2 Where: A100: Maximum inhibition

IC50: 29.05 ± 0.03 µM
SMILES: CC1(C)[C@@H](O)CC[C@]2(C)[C@H]3C(=O)C=C4[C@@H]5C[C@@](C)(C(=O)O)CC[C@]5(C)CC[C@@]4(C)[C@]3(C)CC[C@@H]12 [GA, Glycyrrhetinic acid]
